According to paper PMC7723054:
The list shows a part of the results.

Legend:
Test in all cases: FOREST: bead pull-down of RNA structure library v1, barcode microarray; U1A/LIN28A: 20 mM HEPES pH 7.5, 80 mM KCl, 20 mM NaCl, 10% glycerol, 2 mM DTT, 0.1 ug/uL BSA, 4 C; BG4/CIRBP/DHX36: 10 mM Tris-HCl pH 7.5, 100 mM KCl (or LiCl),; high values mean tight binding
U1A = U1A (Homo sapiens, UniProt P09012)
LIN28A = biological target: T1, LIN28A (human?, UniProt Q9H9Z2 1-209)
T1 sequence: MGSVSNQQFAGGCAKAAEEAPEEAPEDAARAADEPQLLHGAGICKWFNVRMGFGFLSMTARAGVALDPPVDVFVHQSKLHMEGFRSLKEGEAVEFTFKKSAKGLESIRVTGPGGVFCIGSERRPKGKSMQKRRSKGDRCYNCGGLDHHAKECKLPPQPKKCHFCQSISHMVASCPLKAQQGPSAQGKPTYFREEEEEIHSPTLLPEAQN

CIRBP = biological target: T2, CIRBP (Homo sapiens, UniProt Q14011 1-172)
T2 sequence: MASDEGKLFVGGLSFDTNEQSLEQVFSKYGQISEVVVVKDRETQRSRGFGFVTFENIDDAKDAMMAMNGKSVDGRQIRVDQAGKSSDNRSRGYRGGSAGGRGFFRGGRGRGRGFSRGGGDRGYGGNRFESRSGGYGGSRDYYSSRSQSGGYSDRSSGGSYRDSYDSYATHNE

DHX36 = biological target: T3, DHX36 (Homo sapiens, UniProt Q9H2U1 1-1008)
T3 sequence: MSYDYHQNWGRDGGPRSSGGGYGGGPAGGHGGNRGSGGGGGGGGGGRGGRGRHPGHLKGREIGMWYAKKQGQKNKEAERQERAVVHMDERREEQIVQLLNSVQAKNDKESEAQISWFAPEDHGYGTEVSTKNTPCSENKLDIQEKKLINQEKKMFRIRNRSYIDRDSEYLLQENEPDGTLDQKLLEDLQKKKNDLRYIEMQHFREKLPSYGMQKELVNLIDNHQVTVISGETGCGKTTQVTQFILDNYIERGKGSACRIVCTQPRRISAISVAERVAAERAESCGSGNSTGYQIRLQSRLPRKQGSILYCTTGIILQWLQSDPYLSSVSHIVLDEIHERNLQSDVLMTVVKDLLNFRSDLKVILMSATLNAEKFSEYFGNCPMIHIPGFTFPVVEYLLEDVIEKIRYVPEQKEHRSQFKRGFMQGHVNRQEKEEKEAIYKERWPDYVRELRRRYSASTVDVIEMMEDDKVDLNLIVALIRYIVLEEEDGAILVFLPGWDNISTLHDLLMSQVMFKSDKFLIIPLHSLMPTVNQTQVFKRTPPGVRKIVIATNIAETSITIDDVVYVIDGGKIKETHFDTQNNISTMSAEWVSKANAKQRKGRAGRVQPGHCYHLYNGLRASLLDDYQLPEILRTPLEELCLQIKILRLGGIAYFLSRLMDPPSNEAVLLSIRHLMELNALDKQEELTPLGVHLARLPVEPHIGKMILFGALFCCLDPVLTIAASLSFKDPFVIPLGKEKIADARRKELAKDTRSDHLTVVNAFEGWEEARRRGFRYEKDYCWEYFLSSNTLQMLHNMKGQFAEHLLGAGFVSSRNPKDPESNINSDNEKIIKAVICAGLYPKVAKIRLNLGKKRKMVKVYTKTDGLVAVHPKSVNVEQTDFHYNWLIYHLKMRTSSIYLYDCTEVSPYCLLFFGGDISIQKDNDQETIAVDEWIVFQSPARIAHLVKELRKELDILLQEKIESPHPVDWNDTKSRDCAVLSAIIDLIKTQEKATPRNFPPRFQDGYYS

B1: hsa-mir-3116-2 (structured_RNA)
RNA: GGGACGCGCCGAUUAUAGCGAUACCUACGGUGUACGAAGUUUCAGCGGCACCUACGAUACCCAGUGCCGCUGAAGCUUCGUGCAC
Q: With B1 as the binder, how does the binding signal (U1A) read?
A: The binding signal was 0.278 z-score.

Q: And the binding signal (LIN28A)?
A: The binding signal was 2.74 z-score.

Q: And the binding signal (CIRBP)?
A: Its binding signal is 0.548 z-score.

Q: And the binding signal (DHX36)?
A: Its binding signal is 0.255 z-score.

B2: hsa-mir-4646 (structured_RNA)
RNA: GGGAGUCACCAGAGUCUGUAUCGGCCAUGGUGUACGAAGUUUCAGCGGGACAUUGCGGAGAGGGUCUCACAUUGUCCCGCUGAAGCUUCGUGCAC
Q: How did the binding signal (U1A) turn out when B2 was run?
A: The binding signal was 0.275 z-score.

Q: And the binding signal (LIN28A)?
A: Its binding signal is 0.856 z-score.

Q: And the binding signal (CIRBP)?
A: The binding signal was 0.868 z-score.

Q: What about the binding signal (DHX36) of the same binder?
A: The binding signal was 1.53 z-score.

B3: hsa-mir-6798 (structured_RNA)
RNA: GGGAAGGGUUAUAGGCCACUGUCACCAAGGUGUACGAAGUUUCAGCCUUGGGCCCAUUCCUUUCCUUACCCUACGCUGAAGCUUCGUGCAC
Q: How did the binding signal (U1A) turn out when B3 was run?
A: Its binding signal is 0.274 z-score.

Q: And the binding signal (LIN28A)?
A: Its binding signal is -0.0208 z-score.

Q: And the binding signal (CIRBP)?
A: The binding signal was -0.0469 z-score.

Q: And the binding signal (DHX36)?
A: The binding signal was 0.434 z-score.

B4: hsa-mir-4753 (structured_RNA)
RNA: GGGACUGGUAAACGCGACGUUACAUCUGGGUGUACGAAGUUUCAGCAGAACAGAUAUAUCCACAGUACACUUGGCUGUUCUGCUGAAGCUUCGUGCAC
Q: How did the binding signal (U1A) turn out when B4 was run?
A: The binding signal was 1.88 z-score.

Q: What about the binding signal (LIN28A) of the same binder?
A: Its binding signal is 0.0283 z-score.

Q: What about the binding signal (CIRBP) of the same binder?
A: The binding signal was -0.193 z-score.

Q: What about the binding signal (DHX36) of the same binder?
A: The binding signal was -0.0936 z-score.

B5: PARIS_ID21 (structured_RNA)
RNA: GGGAAAAGACCGGAGAUGAAAGCUGCACGGUGUACGAAGUUUCAGCGUAUGUAUUUUAUUAUUACCGGUUUUCCAUUUAUGAUGGUAAUAUUGUUUCUUCUAAGAAUAUUUAUGCUGAAGCUUCGUGCAC
Q: What does the source list for B5?
A: binding signal (U1A): 0.273 z-score; binding signal (LIN28A): 1.96 z-score; binding signal (CIRBP): 2.11 z-score; binding signal (DHX36): 0.576 z-score

B6: hsa-mir-1199 (structured_RNA)
RNA: GGGACAUCUUGCAUAUCGGUCAGCACAGGGUGUACGAAGUUUCAGCGCAGGCCGUGAACUCGUCGAGCUGCGCGUGCGGCCGGUGCUCAGCUGAAGCUUCGUGCAC
Q: For B6, which binding signal (U1A) is on record?
A: The binding signal was 0.271 z-score.

Q: And the binding signal (LIN28A)?
A: The binding signal was 0.561 z-score.

Q: What about the binding signal (CIRBP) of the same binder?
A: Its binding signal is 0.648 z-score.

Q: What about the binding signal (DHX36) of the same binder?
A: Its binding signal is 0.401 z-score.

B7: hsa-mir-146a (structured_RNA)
RNA: GGGAAACGCACGAUUUGUUGAUGAUCAAGGUGUACGAAGUUUCAGCUGGGUUGUGUCAGUGUCAGACCUCGCUGAAGCUUCGUGCAC
Q: With B7 as the binder, how does the binding signal (U1A) read?
A: Its binding signal is 0.271 z-score.

Q: And the binding signal (LIN28A)?
A: Its binding signal is 1.03 z-score.

Q: What about the binding signal (CIRBP) of the same binder?
A: The binding signal was 1.83 z-score.

Q: And the binding signal (DHX36)?
A: The binding signal was 0.0214 z-score.

B8: hsa-mir-3202-1 (structured_RNA)
RNA: GGGACAAAGAGAAGGAGGACUUAUGUUAGGUGUACGAAGUUUCAGCUAAUGAUUGGAGUCAUUUUCAGAGCAUUAGCUGAAGCUUCGUGCAC
Q: With B8 as the binder, how does the binding signal (U1A) read?
A: The binding signal was 0.271 z-score.

Q: What about the binding signal (LIN28A) of the same binder?
A: Its binding signal is -0.528 z-score.

Q: What about the binding signal (CIRBP) of the same binder?
A: The binding signal was -0.457 z-score.

Q: And the binding signal (DHX36)?
A: The binding signal was -0.0344 z-score.

B9: hsa-mir-19b-1 (structured_RNA)
RNA: GGGAACAACGGCGACGUGACCUAACUCUGGUGUACGAAGUUUCAGCUCCAGCUGUGUGAUAUUCUGCUGGCUGAAGCUUCGUGCAC
Q: What does the source list for B9?
A: binding signal (U1A): 0.269 z-score; binding signal (LIN28A): 2.46 z-score; binding signal (CIRBP): -0.661 z-score; binding signal (DHX36): -0.726 z-score

B10: hsa-mir-6799 (structured_RNA)
RNA: GGGAAGUGUAGGCACGGCAUCACAUCCGGGUGUACGAAGUUUCAGCGGCUGGGGUCACUGACUCUGCUUCCCCUGCCGCUGAAGCUUCGUGCAC
Q: What does the source list for B10?
A: binding signal (U1A): 0.268 z-score; binding signal (LIN28A): -0.0956 z-score; binding signal (CIRBP): -0.79 z-score; binding signal (DHX36): 0.352 z-score

B11: hsa-mir-4531 (structured_RNA)
RNA: GGGACUAAGGGUACAAACACGGGUACGAGGUGUACGAAGUUUCAGCCAGUGGGGACAUGGCUGAAGCUUCGUGCAC
Q: Which binding signal (U1A) does the source give for B11 here?
A: The binding signal was 0.264 z-score.

Q: And the binding signal (LIN28A)?
A: Its binding signal is 0.9 z-score.

Q: What about the binding signal (CIRBP) of the same binder?
A: The binding signal was 0.164 z-score.

Q: What about the binding signal (DHX36) of the same binder?
A: The binding signal was 1.54 z-score.
